Experimental findings from patent US10040781B2, “Tank-binding kinase inhibitor compounds” (Gilead Sciences, Inc., priority 2014, dated 2018) are described below.

The chains behind the UniProt entries cited, without tags or fusion partners. Where a name states a change or a piece, a line headed by the entry shows the natural chain unless it says otherwise.
UniProt O60674: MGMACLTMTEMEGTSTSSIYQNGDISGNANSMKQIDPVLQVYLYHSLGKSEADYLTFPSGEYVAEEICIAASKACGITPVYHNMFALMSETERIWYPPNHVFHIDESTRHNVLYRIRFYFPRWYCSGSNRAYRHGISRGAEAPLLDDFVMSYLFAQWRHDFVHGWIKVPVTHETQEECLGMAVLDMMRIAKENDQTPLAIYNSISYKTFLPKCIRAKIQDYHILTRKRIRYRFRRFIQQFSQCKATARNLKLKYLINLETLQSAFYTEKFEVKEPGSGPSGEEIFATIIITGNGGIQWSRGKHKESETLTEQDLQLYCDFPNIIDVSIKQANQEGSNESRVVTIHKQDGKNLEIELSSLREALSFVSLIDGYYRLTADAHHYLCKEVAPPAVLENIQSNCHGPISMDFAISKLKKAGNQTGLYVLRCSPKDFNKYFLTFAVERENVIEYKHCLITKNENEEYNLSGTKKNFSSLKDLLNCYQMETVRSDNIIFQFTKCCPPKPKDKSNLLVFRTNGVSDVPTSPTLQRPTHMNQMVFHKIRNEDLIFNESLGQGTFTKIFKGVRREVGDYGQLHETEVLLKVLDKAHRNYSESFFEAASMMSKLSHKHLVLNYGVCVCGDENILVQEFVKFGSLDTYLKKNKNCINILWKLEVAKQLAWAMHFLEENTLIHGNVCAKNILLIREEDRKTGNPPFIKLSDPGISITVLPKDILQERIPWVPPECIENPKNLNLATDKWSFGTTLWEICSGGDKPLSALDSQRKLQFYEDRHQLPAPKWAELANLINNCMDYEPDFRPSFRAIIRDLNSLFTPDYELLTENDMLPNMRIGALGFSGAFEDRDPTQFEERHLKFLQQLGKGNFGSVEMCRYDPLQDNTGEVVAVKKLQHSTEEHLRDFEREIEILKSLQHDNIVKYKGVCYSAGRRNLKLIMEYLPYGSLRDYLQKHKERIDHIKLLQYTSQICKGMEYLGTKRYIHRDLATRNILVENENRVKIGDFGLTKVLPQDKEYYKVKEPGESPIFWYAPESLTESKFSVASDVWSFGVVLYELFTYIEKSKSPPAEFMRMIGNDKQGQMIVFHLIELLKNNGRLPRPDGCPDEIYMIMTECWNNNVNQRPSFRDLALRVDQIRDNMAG
UniProt Q9UHD2: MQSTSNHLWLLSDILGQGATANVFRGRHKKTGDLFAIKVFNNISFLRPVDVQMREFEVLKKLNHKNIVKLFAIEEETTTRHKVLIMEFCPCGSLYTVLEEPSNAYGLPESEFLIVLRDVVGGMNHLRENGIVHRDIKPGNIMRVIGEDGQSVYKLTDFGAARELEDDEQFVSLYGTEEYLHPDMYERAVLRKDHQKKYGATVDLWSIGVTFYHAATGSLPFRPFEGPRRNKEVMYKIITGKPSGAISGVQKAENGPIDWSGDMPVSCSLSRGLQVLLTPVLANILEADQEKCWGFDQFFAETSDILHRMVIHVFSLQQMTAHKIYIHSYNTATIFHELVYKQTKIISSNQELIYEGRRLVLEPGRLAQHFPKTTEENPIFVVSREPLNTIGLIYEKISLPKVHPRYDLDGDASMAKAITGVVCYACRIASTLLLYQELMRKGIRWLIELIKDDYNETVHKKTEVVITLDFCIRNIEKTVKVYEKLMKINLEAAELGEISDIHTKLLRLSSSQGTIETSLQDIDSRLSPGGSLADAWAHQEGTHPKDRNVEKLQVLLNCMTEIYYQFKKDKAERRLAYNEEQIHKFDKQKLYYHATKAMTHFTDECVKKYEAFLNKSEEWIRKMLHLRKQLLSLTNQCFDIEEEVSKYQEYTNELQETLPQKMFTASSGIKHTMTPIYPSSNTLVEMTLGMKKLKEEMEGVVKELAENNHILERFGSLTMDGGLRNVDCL
UniProt Q14164: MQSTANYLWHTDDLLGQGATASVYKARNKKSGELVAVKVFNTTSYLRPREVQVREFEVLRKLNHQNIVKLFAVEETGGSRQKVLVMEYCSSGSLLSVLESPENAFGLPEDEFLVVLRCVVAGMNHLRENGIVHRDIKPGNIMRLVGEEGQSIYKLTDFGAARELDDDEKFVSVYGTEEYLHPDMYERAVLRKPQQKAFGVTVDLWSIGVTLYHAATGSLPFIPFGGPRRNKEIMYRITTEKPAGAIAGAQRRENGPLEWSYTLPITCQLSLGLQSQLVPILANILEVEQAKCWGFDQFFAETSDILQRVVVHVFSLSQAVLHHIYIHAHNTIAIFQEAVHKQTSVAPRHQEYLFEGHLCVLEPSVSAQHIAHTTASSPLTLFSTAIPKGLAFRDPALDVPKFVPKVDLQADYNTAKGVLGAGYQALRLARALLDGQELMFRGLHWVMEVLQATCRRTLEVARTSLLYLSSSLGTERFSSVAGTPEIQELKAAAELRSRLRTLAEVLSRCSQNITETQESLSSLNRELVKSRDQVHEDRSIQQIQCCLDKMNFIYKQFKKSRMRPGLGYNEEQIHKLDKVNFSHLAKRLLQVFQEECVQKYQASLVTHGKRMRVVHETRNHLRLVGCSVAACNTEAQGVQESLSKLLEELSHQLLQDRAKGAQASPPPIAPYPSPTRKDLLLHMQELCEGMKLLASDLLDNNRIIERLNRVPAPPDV

Test [1] deals with hJAK2 (Homo sapiens (Human), UniProt O60674). The test can be described thus: hJAK2 LANCE TR-FRET enzymatic assay. It counts as biochemical. To be noted: read-out: JAK2 IC50. For orientation: TR-FRET usually uses a lanthanide donor and a delayed reading to cut background.
Test [2] concerns the target TBK1 (Homo sapiens (Human), UniProt Q9UHD2). Nature of the test: TBK1 TR-FRET enzymatic assay.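 Note: phosphorylation of a biotinylated Ser/Thr peptide by purified full-length recombinant TBK1, read by TR-FRET after 240 min at 25 °C, IC50 is the geometric mean of at least four runs.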
Test [3] concerns the target IKKε (Homo sapiens (Human), UniProt Q14164). Nature of the test: IKKε TR-FRET enzymatic assay. It counts as biochemical. Conditions: read-out: IKKe IC50.
Setting [4] is: TR-FRET, 2×Km ATP, geometric mean of minimum four determinations.

Where two headings read alike, the source gives them in different places.

`C[C@H](O)C(=O)N1CC[C@H](Oc2ccc(-c3ncnc(Nc4ccc(N5CCN(C6COC6)CC5)c(C#N)c4)n3)cc2C#N)[C@H](F)C1` [Example 369, 5-((4-(3-cyano-4-(((3R,4S)-3-fluoro-1-((S)-2-hydroxypropanoyl)piperidin-4-yl)oxy)phenyl)-1,3,5-triazin-2-yl)amino)-2-(4-(oxetan-3-yl)piperazin-1-yl)benzonitrile]: the IC50 in test [1] turned out to be 718 nM; in test [2] it was 3 nM. `C[C@H](O)C(=O)N1CC[C@H](Oc2ccc(-c3ncnc(Nc4ccc(N5CCOC[C@@H]5CO)cc4)n3)cc2C#N)[C@H](F)C1` [Example 387, 2-(((3R,4S)-3-fluoro-1-((S)-2-hydroxypropanoyl)piperidin-4-yl)oxy)-5-(4-((4-((S)-3-(hydroxymethyl)morpholino)phenyl)amino)-1,3,5-triazin-2-yl)benzonitrile]: the IC50 in test [1] was determined as 638 nM.

Turning to `N#Cc1cc(-c2ncnc(Nc3ccc(N4CCN(C5COC5)CC4)cc3)n2)ccc1O[C@@H]1CCN(C(=O)CO)C[C@@H]1F` (racemic) [Example 218, 2-((cis-3-fluoro-1-(2-hydroxyacetyl)piperidin-4-yl)oxy)-5-(4-((4-(4-(oxetan-3-yl)piperazin-1-yl)phenyl)amino)-1,3,5-triazin-2-yl)benzonitrile], the IC50 in test [2] was determined as 1 nM. With `C[C@H](O)C(=O)N1CC[C@H](Oc2ccc(-c3ncnc(Nc4ccc(N5C6COCC5C6)cc4)n3)cc2C#N)[C@H](F)C1` [Example 366, 5-(4-((4-(3-oxa-6-azabicyclo[3.1.1]heptan-6-yl)phenyl)amino)-1,3,5-triazin-2-yl)-2-(((3R,4S)-3-fluoro-1-((S)-2-hydroxypropanoyl)piperidin-4-yl)oxy)benzonitrile], the IC50 in test [3] was 2 nM.

Consider `C[C@@H](O)C(=O)N1CC[C@H](Oc2ccc(-c3ncnc(Nc4ccc(N5CCN(C6COC6)CC5)cc4)n3)cc2C#N)[C@H](F)C1` [Example 464, 2-(((3R,4S)-3-fluoro-1-((R)-2-hydroxypropanoyl)piperidin-4-yl)oxy)-5-(4-((4-(4-(oxetan-3-yl)piperazin-1-yl)phenyl)amino)-1,3,5-triazin-2-yl)benzonitrile], for which, in test [2], the IC50 came to 8 nM. For the compound `C[C@H]1OC(=O)N[C@@H]1C(=O)N1CC[C@H](Oc2ccc(-c3ncnc(Nc4ccc(N5CCN(C6COC6)CC5)cc4)n3)cc2C#N)[C@H](F)C1` [Example 523, 2-(((3R,4S)-3-fluoro-1-((4S,5R)-5-methyl-2-oxooxazolidine-4-carbonyl)piperidin-4-yl)oxy)-5-(4-((4-(4-(oxetan-3-yl)piperazin-1-yl)phenyl)amino)-1,3,5-triazin-2-yl)benzonitrile], the IC50 in test [3] (setting [4]) was 26 nM. Turning to `N#CCC(=O)N1CCC(Oc2ccc(-c3ncnc(Nc4ccc(N5CCN(C6COC6)CC5)cc4)n3)cc2C#N)CC1` [Example 44, 2-((1-(2-cyanoacetyl)piperidin-4-yl)oxy)-5-(4-((4-(4-(oxetan-3-yl)piperazin-1-yl)phenyl)amino)-1,3,5-triazin-2-yl)benzonitrile], in test [3], the IC50 turned out to be 26 nM. For `C[C@H](O)C(=O)N1CC[C@@H](Oc2ccc(-c3ncnc(Nc4ccc(N5CCN(C6COC6)[C@H](C)C5)cc4)n3)cc2C#N)C(F)(F)C1` [Example 245, 2-(((R)-3,3-difluoro-1-((S)-2-hydroxypropanoyl)piperidin-4-yl)oxy)-5-(4-((4-((R)-3-methyl-4-(oxetan-3-yl)piperazin-1-yl)phenyl)amino)-1,3,5-triazin-2-yl)benzonitrile], in test [3], the IC50 was determined as 26 nM.

For the compound `C[C@H](O)C(=O)N1CC[C@@H](Oc2ccc(-c3ncnc(Nc4ccc(N5CCN(C6COC6)CC5)cc4)n3)cc2C#N)C1` [Example 88, 2-(((R)-1-((S)-2-hydroxypropanoyl)pyrrolidin-3-yl)oxy)-5-(4-((4-(4-(oxetan-3-yl)piperazin-1-yl)phenyl)amino)-1,3,5-triazin-2-yl)benzonitrile], the IC50 in test [1] worked out at 488 nM. As to `N#Cc1cc(-c2ncnc(Nc3ccc(N4CCN(C5COC5)CC4)cc3)n2)ccc1O[C@H]1CCOC1` [Example 216, (S)-5-(4-((4-(4-(oxetan-3-yl)piperazin-1-yl)phenyl)amino)-1,3,5-triazin-2-yl)-2-((tetrahydrofuran-3-yl)oxy)benzonitrile], in test [1], the IC50 came out at 281 nM. In test [2], `N#Cc1cc(-c2ncnc(Nc3ccc(N4CCN(C5COC5)CC4)cc3)n2)ccc1O[C@@H]1CCN(C(=O)CO)C[C@@H]1F` [Example 224, 2-(((3S,4R)-3-fluoro-1-(2-hydroxyacetyl)piperidin-4-yl)oxy)-5-(4-((4-(4-(oxetan-3-yl)piperazin-1-yl)phenyl)amino)-1,3,5-triazin-2-yl)benzonitrile] registered an IC50 of 9 nM. For the compound `N#Cc1cc(-c2ncnc(Nc3ccc(N4CCN(C5COC5)CC4)cc3)n2)ccc1O[C@H]1CCN(C(=O)[C@@H]2C[C@@H](O)C(=O)N2)C[C@H]1F` [Example 403, 2-(((3R,4S)-3-fluoro-1-((2S,4R)-4-hydroxy-5-oxopyrrolidine-2-carbonyl)piperidin-4-yl)oxy)-5-(4-((4-(4-(oxetan-3-yl)piperazin-1-yl)phenyl)amino)-1,3,5-triazin-2-yl)benzonitrile], the IC50 in test [3] (setting [4]) was 6 nM. Compound `N#Cc1cc(-c2ncnc(Nc3ccc(N4CCN(C5COC5)CC4)cc3)n2)ccc1O[C@@H]1CCN(C(=O)CO)C[C@H]1F` [Example 235, 2-(((3R,4R)-3-fluoro-1-(2-hydroxyacetyl)piperidin-4-yl)oxy)-5-(4-((4-(4-(oxetan-3-yl)piperazin-1-yl)phenyl)amino)-1,3,5-triazin-2-yl)benzonitrile] showed an IC50 in test [2] of 2 nM.

`C[C@H](O)C(=O)N1CC[C@@H](Oc2ccc(-c3ncnc(Nc4ccc(N5CCN(C6COC6)CC5)cc4)n3)cc2C#N)[C@H](F)C1` [Example 234, 2-(((3R,4R)-3-fluoro-1-((S)-2-hydroxypropanoyl)piperidin-4-yl)oxy)-5-(4-((4-(4-(oxetan-3-yl)piperazin-1-yl)phenyl)amino)-1,3,5-triazin-2-yl)benzonitrile] yielded an IC50 in test [2] of 4 nM. Take `Cc1cc(Nc2ncnc(-c3ccc(O[C@H]4CCN(C(=O)[C@@H](O)CO)C[C@H]4F)c(C#N)c3)n2)ccc1N1CCN(C2COC2)CC1` [Example 575, 2-(((3R,4S)-1-((S)-2,3-dihydroxypropanoyl)-3-fluoropiperidin-4-yl)oxy)-5-(4-((3-methyl-4-(4-(oxetan-3-yl)piperazin-1-yl)phenyl)amino)-1,3,5-triazin-2-yl)benzonitrile]: the IC50 in test [3] (setting [4]) was 1 nM. With `N#Cc1cc(-c2ncnc(Nc3ccc(N4CCN(C5COC5)CC4)cc3)n2)ccc1O[C@H]1CCN(C(=O)CO)CC1(F)F` (single isomer, unassigned) [Example 152], the IC50 in test [3] turned out to be 14 nM. As for `CC1(C)CN(C(=O)CO)CC[C@@H]1Oc1ccc(-c2ncnc(Nc3ccc(N4CCN(C5COC5)CC4)cc3)n2)cc1C#N` (single isomer, unassigned) [Example 175], the IC50 in test [3] amounted to 5 nM. Regarding `N#Cc1cc(-c2ncnc(Nc3ccc(C(N)=O)cc3)n2)ccc1O[C@@H]1CCN(C(=O)CO)C1` [Example 85, (R)-4-((4-(3-cyano-4-((1-(2-hydroxyacetyl)pyrrolidin-3-yl)oxy)phenyl)-1,3,5-triazin-2-yl)amino)benzamide], in test [3], the IC50 amounted to 26 nM. Turning to `N#Cc1cc(-c2ncnc(Nc3ccc(N4CCN(C5COC5)CC4)cc3)n2)ccc1O[C@@H]1CN(C(=O)CO)C[C@@H]1F` [Example 101, 2-(((3R,4S)-4-fluoro-1-(2-hydroxyacetyl)pyrrolidin-3-yl)oxy)-5-(4-((4-(4-(oxetan-3-yl)piperazin-1-yl)phenyl)amino)-1,3,5-triazin-2-yl)benzonitrile], the IC50 in test [3] turned out to be 26 nM; in test [1] it was 638 nM. On to `N#Cc1cc(-c2ncnc(Nc3ccc(N4CCN(C5COC5)CC4)cc3)n2)ccc1O[C@H]1CCN(C(=O)[C@@H]2CCCN2)C[C@H]1F` [Example 133, 2-(((3R,4S)-3-fluoro-1-((S)-pyrrolidine-2-carbonyl)piperidin-4-yl)oxy)-5-(4-((4-(4-(oxetan-3-yl)piperazin-1-yl)phenyl)amino)-1,3,5-triazin-2-yl)benzonitrile], for which the IC50 in test [2] is 483 nM. Turning to `N#Cc1cc(-c2ncnc(Nc3ccc(N4CCN(C5COC5)CC4)cc3)n2)ccc1O[C@H]1CCN(C(=O)CO)C[C@H]1F` [Example 237, 2-(((3R,4S)-3-fluoro-1-(2-hydroxyacetyl)piperidin-4-yl)oxy)-5-(4-((4-(4-(oxetan-3-yl)piperazin-1-yl)phenyl)amino)-1,3,5-triazin-2-yl)benzonitrile], the IC50 in test [3] and in test [2] was 1 nM throughout.

`N#Cc1cc(-c2ncnc(Nc3ccc(N4CCN(C5COC5)CC4)cc3)n2)ccc1O[C@H]1CCN(C(=O)[C@@H]2C[C@@H](F)C(=O)N2)C[C@H]1F` [Example 405, 2-(((3R,4S)-3-fluoro-1-((2S,4R)-4-fluoro-5-oxopyrrolidine-2-carbonyl)piperidin-4-yl)oxy)-5-(4-((4-(4-(oxetan-3-yl)piperazin-1-yl)phenyl)amino)-1,3,5-triazin-2-yl)benzonitrile]: the IC50 in test [3] (setting [4]) came to 10 nM.

Turning to `C[C@@H](O)C(=O)N1CC[C@@H](Oc2ccc(-c3ncnc(Nc4ccc(N5CCN(C6COC6)CC5)cc4)n3)cc2C#N)C1` [Example 91, 2-(((R)-1-((R)-2-hydroxypropanoyl)pyrrolidin-3-yl)oxy)-5-(4-((4-(4-(oxetan-3-yl)piperazin-1-yl)phenyl)amino)-1,3,5-triazin-2-yl)benzonitrile], the figures for the IC50 in test [3] and in test [1] were 607 nM and 693 nM, respectively.

Usually IC50 stands for the concentration at which inhibition is half-maximal.
